Experiment [1] deals with T1, GST-hTEAD1(209-426) (human, UniProt P28347 209-426).
T1 construct: A 3C protease site stands between tags and protein; also called human TEAD1; source: E. coli BL21 DE3 RIL, purified (His Trap, SEC); not shown: GST, N-terminal, kept
Kind of experiment: SPR; GST-hTEAD1 or mTEAD4 amine-coupled to a CM5 chip (10 mM MES pH 6.4), peptides as analytes; 10 mM HEPES, 150 mM NaCl, 0.05% Tween-20, pH 7.4, 20 °C, 30 µL/min; steady-state fit, 1:1 model. The note with it: both partners purified. In general terms: Surface plasmon resonance follows binding to a sensor surface in real time, without labels.

For experiment [2], the target named is T1, GST-hTEAD1(209-426). The experiment in a line: fluorescence polarisation; direct: FITC-labelled peptide (10 nM) titrated with hTEAD1 or mTEAD4; 10 mM HEPES, 150 mM NaCl, 0.1% Tween-20, pH 7.4; read after 1 h. The following applies: both partners purified.

As a reminder, the Kd is the concentration at which binding is half-saturated. High values mean lower affinity, low ones higher affinity.

B1: YAP(50-100) (peptide, UniProt P46937 50-100, looked up)
peptide: AGHQIVHVRGDSETDLEALFNAVMNPKTANVPQTVPMRLRKLPDSFFKPPE
notes: yes-associated protein YAP, residues 50-100
In turn, B1 gave a Kd with GST-hTEAD1(209-426) [1] of 1800 nM.

B2: FITC-labelled YAP(50-100) (peptide, UniProt P46937 50-100, looked up)
peptide: B1 peptide
modifications: FITC label
notes: yes-associated protein YAP, residues 50-100; also called FITC-YAP
For B2, in the experiment with GST-hTEAD1(209-426) [2], the dissociation constant Kd worked out at 15.5 ± 1.4 nM.

(Values after publication PMC7591920 (Nature Communications, 2020).)
